Reference: publication PMC6499816 (2019)

Target: LC3B (recombinant, BLI) (human, UniProt Q9GZQ8 1-120)
Assay: BLI

B1: PCM1 K1957I LIR peptide (BLI) (peptide)
chain: NISQKSDEEDFVIVEDLPLKLTIY
modifications: biotin (position not given)
  Kd: 10.3 µM
